Patent US20090047278A1, “Novel Combinational Use of Sulfonamide Compound” (Eisai R & D Management Co., Ltd., priority 2005, published 2009)

How the values were obtained:
[1] = test system: human renal cancer cell line (ACHN); experiment: E7820 and cetuximab in subcutaneous transplant model of ACHN; type: in vivo; conditions: ACHN s.c. in nude mouse; E7820 oral 50 mg/kg twice a day, cetuximab i.p. 100 mg/kg twice a week, 2 weeks; Day 1 = first administration
Description: Human renal cancer cell line ACHN (obtained from Dainippon Pharmaceutical) was cultured in RPMI1640 (containing 10% FBS) in a 5% carbon dioxide incubator at 37° C. to about 80% confluence, and the cells were collected with trypsin-EDTA. Using a phosphate buffer, 1×10^8 cells/mL suspension was prepared, and 0.1 mL each of the resulting cell suspension was subcutaneously transplanted to a nude mouse at the side of its body. Eight days after the transplantation, E7820 and cetuximab were administered alone or in combination. E7820 was orally administered at 50 mg/kg twice a day for 2 weeks while cetuximab was intraperitoneally administered at 100 mg/kg twice a week for 2 weeks.
(§1) The major and minor axes of tumors were measured with Digimatic caliper (Mitsutoyo), and tumor volumes and relative tumor volumes were calculated according to the following formulae.
Tumor Volume TV=Major axis of tumor(mm)×(Minor axis of tumor)^2 (mm^2)/2
(§2) Relative Tumor Volume RTV=Tumor volume on measurement day/Tumor volume on the first administration day

[2] = test system: human colon cancer cell line (WiDr); experiment: E7820 and cetuximab in subcutaneous transplant model of WiDr; type: in vivo; conditions: WiDr s.c. in nude mouse; E7820 oral 50 mg/kg twice a day, cetuximab i.p. 100 mg/kg twice a week, 2 weeks; Day 1 = first administration
Description: Human colon cancer cell line WiDr (obtained from Dainippon Pharmaceutical) was cultured in RPMI1640 (containing 10% FBS) in a 5% carbon dioxide incubator at 37° C. to about 80% confluence, and the cells were collected with trypsin-EDTA. Using a phosphate buffer, 5×10^7 cells/mL suspension was prepared, and 0.1 mL each of the resulting cell suspension was subcutaneously transplanted to a nude mouse at the side of its body. Ten days after the transplantation, E7820 and cetuximab (Erbitux® purchased from Merck) were administered alone or in combination. E7820 was orally administered at 50 mg/kg twice a day for 2 weeks while cetuximab was intraperitoneally administered at 100 mg/kg twice a week for 2 weeks.
as §1
Tumor Volume TV=Major axis of tumor(mm)×(Minor axis of tumor)^2(mm^2)/2
as §2

Substance: Cetuximab: anti-EGFR antibody, Erbitux purchased from Merck
- Relative tumor volume on Day 15 Average ± standard deviation [1]: 1.4 ± 0.1
- Relative tumor volume on Day 15 Average ± standard deviation [2]: 3.2 ± 0.4
